Experimental data reported in patent US12064507B2, “Composition and method for oral treatment of leukemia” (Provectus Pharmatech, Inc., priority 2019, dated 2024).

Tested on: leukemia
Details: parental application Ser. No. 16/688,319

SMILES: COc1cccc2c1C(=O)c1c(O)c3c(c(O)c1C2=O)C[C@@](O)(C(=O)CO)C[C@@H]3O[C@H]1C[C@H](N)[C@H](O)[C@H](C)O1 [doxorubicin]
- synergy in treatment with a sub-lethal dose of PV-10: appeared to synergize
